Key:
[1] = Protein recovery after doxorubicin loading, UV-Vis spectrum; assay type: physicochemical; conditions: initial concentration 28.5 mg/ml, volume 1 ml
siRNA = test: Association of ferritin with siRNA, gel; assay type: binding; conditions: independently from pH conditions (2.5 to 6.8)
Method: FIG. 8: Picture of gel showing RNA association with Q11E ferritin mutant that is not observed in case of wild-type protein (wt).
1 ml reaction containing 2 mg Ft and 4 ug siRNA in DPBS, pH lowered to values as indicated (2.5, 3.2, 4.4, 5.6 and 6.8, respectively). Samples were incubated 15 min in RT, then NaOH was added to adjust pH to neutral (pH 7). Non-associated free siRNA was removed by 4 centrifugation steps on Amicons with 100 kDa cut-off.

[2] = Native gel after storage in freezer (-80 degrees Celsius) and thawing; assay type: physicochemical; conditions: ferritin cages with doxorubicin, mutants of b203
Excerpt: Storage conditions for wild type ferritin are limited.

Substance: WT: human wild-type heavy chain ferritin (SEQ ID NO. 1)
- final protein concentration after doxorubicin encapsulation [1]: 10.2 mg/mL
- association with siRNA (siRNA): no association with siRNA
- aggregation of cages after storage [2]: increase of cages aggregation

— US20240158472A1, “FERRITIN VARIANTS WITH INCREASED STABILITY AND COMPLEXATION ABILITY” (Cellis AG, priority 2021, published 2024)
